Results reported in paper PMC5081515 (Scientific Reports, 2016).

Protein sequences, listed by entry. Tags and fused reporters are not part of them. Lines headed by an entry give the natural chain unless they say otherwise; changes in a name come on top.
UniProt Q07010: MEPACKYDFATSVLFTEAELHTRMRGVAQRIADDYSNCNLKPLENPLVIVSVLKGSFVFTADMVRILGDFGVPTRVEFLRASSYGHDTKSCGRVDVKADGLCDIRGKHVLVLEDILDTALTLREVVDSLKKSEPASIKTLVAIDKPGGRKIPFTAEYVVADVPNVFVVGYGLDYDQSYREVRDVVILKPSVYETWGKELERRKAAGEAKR

Target: TbrHGPRT (Trypanosoma brucei brucei, UniProt Q07010)
Experiment: Kinetic constants of naturally occurring substrates, continuous spectrophotometric assay
Assay type: biochemical
Parameters: made in house; host or cells: E. coli BL-21 (DE3), pET-22b
Conditions: for kcat: 0.03 M phosphate buffer, […] MgCl2, 1 mM DTT, pH 7.4, 25 °C
Method: One unit of activity is defined as the number of μmol of purine base converted to its mononucleotide product per minute.
The kinetic constants were calculated using GraphPad Prism 6.0.

With `Nc1nc2nc[nH]c2c(=O)[nH]1` [Guanine] the kcat was 23.8 ± 0.3 s⁻¹, the kcat (listed as guanine) was 23.8 s⁻¹ and the “kcat/Km, fold higher than that of hypoxanthine” value (TbrHGPRT) was 3.3 fold.
